A short description of the assay: Cytotoxicity against human L02 cells by MTT assay. The format is cell-based. In outline: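 Toxicity compared on human normal liver L-02 cells and human liver cancer Bel-7402 cells run side by side. Survival curves by MTT after 72 h treatment. IC50 is the concentration inhibiting 50% of cell growth.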

A word on the pIC50: it is the negative decadic logarithm of the IC50, by convention in mol/L.

Each structure is given as a SMILES string. pIC50: −log10 of the molar value.

In turn, `O=C(O)c1ccc(N(CCCl)CCCl)cc1` had a negative logarithm of the IC50 (pIC50) of under 4.00.

The record behind these values is ChEMBL document CHEMBL3352716 (ACS Med Chem Lett, 2014).
